The nature of series [1]: Body weight / tolerability (Example 3). To be noted: treatment groups. As for the experimental part:
(§1) Observations and Data Collection: After tumor cells inoculation, the animals were checked daily for morbidity and mortality. During routine monitoring, the animals were checked for any effects of tumor growth and treatments on behavior such as mobility, food and water consumption, body weight gain/loss (body weights were measured twice per week after randomization), eye/hair matting and any other abnormalities. Mortality and observed clinical signs were recorded for individual animals in detail.
(§2) Criteria for Dosing Holiday and Supplemental Gel Administration: No dosing holiday. Treatment resumed when the BWL recovered. Sacrificed the individual mouse when BWL>15% for 72 hours. Supplemental gels were administered to the individual mouse with BWL>15%. BWL was calculated based in the BW of mouse on the day of randomization.
(§3) Endpoints: The body weight of all animals was monitored throughout the study and animals were euthanized if they lost over 20% of their body weight relative to the weight on the first day of treatment. The individual mouse was euthanized if its tumor volume exceeded 3000 mm^3. […] The mouse was euthanized rapidly if: tumor ulcerates, and the ulceration diameter was greater than 5 mm, or pus or necrosis observed; or tumor burden, including metastasis, compromises animal's normal physiologic performances, e.g., orientation, access to food or water. The mouse was euthanized rapidly if the animal was: emaciated—skeletal structure extremely prominent, little or no flesh cover, vertebrae distinctly segmented; persistent hypothermia; blood stained or mucopurulent discharge from any orifice; labored breathing, particularly accompanied by nasal discharge or cyanosis; hind limb paralysis or weakness (cannot reach food and water); severe anemia, mainly indicated by pale feet or ears; severe infection; incontinence or diarrhea over 48 hours; or severe dehydration.

Series [2] in a line: Body weight / tolerability (Example 5). As to conditions: treatment groups. How it is done: as §1, §2, §3
The test system of the next series is cKIT Exon 11. The experiment in a line: Potency against KIT exon 11.

In the case of `Cn1cc(-c2ccc(CNc3cc(-c4cnc5cc(OCCCN6CCCC6)ccn45)ncn3)cc2)cn1`, in series [1], the body weight loss entry is “no significant body weight loss” and the tolerability result is reported as “well-tolerated”. Also, in series [2], the body weight loss result is “no significant body weight loss” and the tolerability entry is listed as “well-tolerated”. The “potency against Exon 11” value in the series with cKIT Exon 11 was “potent”.

The values above are taken from patent US20260382609A1, “Combination Therapy Comprising Kit Inhibitors for Use in the Treatment of Cancer” (published 2026).
